From ChEMBL document CHEMBL1127731, “Structure-activity study of neuropeptide FF: contribution of N-terminal regions to affinity and activity” (J Med Chem, 1994) come the findings set out here.

The chains behind the UniProt entries cited, without tags or fusion partners. Where a name states a change or a piece, a line headed by the entry shows the natural chain unless it says otherwise.
UniProt Q9EQD2: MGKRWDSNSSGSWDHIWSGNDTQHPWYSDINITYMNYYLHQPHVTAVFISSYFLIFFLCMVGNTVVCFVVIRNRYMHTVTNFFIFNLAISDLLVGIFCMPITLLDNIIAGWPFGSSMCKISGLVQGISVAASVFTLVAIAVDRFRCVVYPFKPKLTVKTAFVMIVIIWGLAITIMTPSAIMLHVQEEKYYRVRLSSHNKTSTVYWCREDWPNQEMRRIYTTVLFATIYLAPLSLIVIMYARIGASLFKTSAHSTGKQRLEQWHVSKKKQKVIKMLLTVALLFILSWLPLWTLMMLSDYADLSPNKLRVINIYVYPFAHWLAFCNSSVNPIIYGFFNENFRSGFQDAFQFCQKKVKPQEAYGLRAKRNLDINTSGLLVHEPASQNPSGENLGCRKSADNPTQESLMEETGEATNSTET

The term Ki denotes a dissociation constant, usually derived from enzyme kinetics or from competition with a known ligand. A low value points to a stronger hold on the target.

The experiment deals with Neuropeptide FF receptor 2 (Rattus norvegicus, UniProt Q9EQD2). Nature of the experiment: Binding affinity for NPPF receptor in rat spinal cord membranes using the radioligand [125I]-[Tyr1]NPFF. Format: cell membranes, Membrane. Summed up: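 Displacement of [125I][Tyr1]NPFF (0.1 nM final) from rat spinal cord membranes, 30 min at 25 °C, in 50 mM Tris-HCl pH 7.4 with 120 mM NaCl, 0.5% BSA, 0.1 mM bestatin, 1 mM EDTA, 0.5 mM diisopropylfluorophosphate. Unlabeled peptides 5×10^-11–10^-6 M; nonspecific binding with 10^-6 M [Tyr1]NPFF. Stopped by ice-cold buffer and centrifugation; pellet gamma-counted. Ki via Cheng-Prusoff from IC50; three determinations.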

SMILES strings stand for the structures.

In the case of `N=C(N)NCCC[C@H](NC(=O)[C@H](CCC(N)=O)NC(=O)[C@@H]1CCCN1)C(=O)N[C@@H](Cc1ccccc1)C(N)=O`, the Ki was found to be 0.0155 µM.
